Measurements reported in patent US5807855A (dated 1998).

Protein sequences, listed by entry. Tags and fused reporters are not part of them.
UniProt P18901, whole entry: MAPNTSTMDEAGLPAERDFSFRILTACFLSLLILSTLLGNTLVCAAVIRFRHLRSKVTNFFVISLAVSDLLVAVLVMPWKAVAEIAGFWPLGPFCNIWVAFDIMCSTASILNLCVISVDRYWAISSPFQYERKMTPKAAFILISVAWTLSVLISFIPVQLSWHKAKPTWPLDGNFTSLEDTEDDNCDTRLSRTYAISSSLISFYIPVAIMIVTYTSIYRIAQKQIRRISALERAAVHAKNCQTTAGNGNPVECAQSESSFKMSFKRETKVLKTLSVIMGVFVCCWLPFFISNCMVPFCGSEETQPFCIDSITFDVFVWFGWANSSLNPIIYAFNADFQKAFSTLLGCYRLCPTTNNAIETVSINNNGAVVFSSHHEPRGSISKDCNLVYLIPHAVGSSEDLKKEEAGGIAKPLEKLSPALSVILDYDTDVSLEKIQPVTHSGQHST
UniProt P61169, whole entry: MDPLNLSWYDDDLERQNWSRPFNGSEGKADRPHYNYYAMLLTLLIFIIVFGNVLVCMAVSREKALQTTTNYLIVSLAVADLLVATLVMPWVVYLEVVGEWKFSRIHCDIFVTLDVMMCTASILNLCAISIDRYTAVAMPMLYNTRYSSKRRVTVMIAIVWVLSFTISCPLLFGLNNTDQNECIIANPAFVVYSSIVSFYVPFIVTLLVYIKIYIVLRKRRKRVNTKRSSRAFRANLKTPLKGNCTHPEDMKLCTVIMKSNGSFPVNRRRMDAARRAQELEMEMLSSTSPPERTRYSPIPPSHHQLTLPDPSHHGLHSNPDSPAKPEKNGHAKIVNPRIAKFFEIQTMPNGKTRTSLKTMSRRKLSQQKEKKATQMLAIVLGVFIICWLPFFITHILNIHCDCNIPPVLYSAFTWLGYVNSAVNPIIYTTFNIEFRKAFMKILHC

Assays:
DA D1 receptor = DA D1 receptor (Rattus norvegicus, UniProt P18901); experiment: biochemical; settings: Receptor Binding; IC50, D1 3H-SCH, rat striatal membranes, 3H-SCH 23390
DA D2 receptors = DA D2 receptors (Rattus norvegicus, UniProt P61169); experiment: Inhibition of 3H-spiperone binding to DA D2 receptors in rat striatal membranes; settings: Receptor Binding, IC50, D2 3H-Spi

| Compound | IC50 (DA D1 receptor) [nM] | IC50 (DA D2 receptors) [nM] |
| --- | --- | --- |
| CN1CCN([C@@H]2C[C@@H](c3ccc(F)cc3)c3ccc(Cl)cc32)CC12CCC2 (racemic) [Compound 28, (±)-Trans-8-[6-chloro-3-(4-fluorophenyl)-2,3-dihydro-1H-inden-1-yl]-5-methyl-5,8-diazaspiro[3.5]nonane] | 0.89 | – |
| CN1CCN([C@@H]2C[C@@H](c3ccc(F)cc3)c3ccc(Cl)cc32)CC1(C)C (single isomer, unassigned) [+2, (+) Trans-4-[6-chloro-3-(4-fluorophenyl)-2,3-dihydro-1H-inden-1-yl]-1,2,2-trimethylpiperazine] | – | > 1000 |
